The nature of the data set: in vitro. The settings on record: human.

The text below walks through data of paper PMC8594587 (Journal of medicinal chemistry, 2021).

With `Cc1cc(/C=C/C#N)cc(C)c1Oc1nc(NC2CCN(Cc3ccc(S(N)(=O)=O)cc3)CC2)ncc1-c1ccc(N)nc1` [Compound 29a, (E)-4-((4-((5-(6-aminopyridin-3-yl)-4-(4-(2-cyanovinyl)-2,6-dimethylphenoxy)pyrimidin-2-yl)amino)piperidin-1-yl)methyl)benzenesulfonamide], the CC50 amounted to 2910 ± 650 nM.
